Measured values: PMC10177590, “Canine Intestinal Organoids as a Novel In Vitro Model of Intestinal Drug Permeability: A Proof-of-Concept Study” (Cells, 2023)

Test system: canine colonoid monolayer
[1] = FITC-dextran with metoprolol, 120 min
[2] = FITC-dextran without metoprolol, 120 min

Q: For FITC-Dextran, which “Donor (%)” value (FITC-dextran 200 µg/mL + metoprolol 0.4 mg/mL, AP donor pH 6.8, 0 min) is on record?
A: Its value is 100 ± 0.0%.

Q: What about the “Donor (%)” value (FITC-dextran 200 µg/mL + metoprolol 0.4 mg/mL, AP donor pH 6.8, 120 min) of the same substance?
A: The value was 94.6 ± 1.4%.

Q: What about the “Receiver (%)” value (FITC-dextran 200 µg/mL + metoprolol 0.4 mg/mL, BL receiver pH 7.4, 0 min) of the same substance?
A: The value was 0.021 ± 0.001%.

Q: What about the “Receiver (%)” value (FITC-dextran 200 µg/mL + metoprolol 0.4 mg/mL, BL receiver pH 7.4, 15 min) of the same substance?
A: The value was 0.023 ± 0.001%.

Q: And the “Receiver (%)” value (FITC-dextran 200 µg/mL + metoprolol 0.4 mg/mL, BL receiver pH 7.4, 30 min)?
A: Its value is 0.020 ± 0.00%.

Q: What about the “Receiver (%)” value (FITC-dextran 200 µg/mL + metoprolol 0.4 mg/mL, BL receiver pH 7.4, 45 min) of the same substance?
A: The value was 0.020 ± 0.00%.

Q: And the “Receiver (%)” value (FITC-dextran 200 µg/mL + metoprolol 0.4 mg/mL, BL receiver pH 7.4, 60 min)?
A: Its value is 0.022 ± 0.001%.

Q: What about the “Receiver (%)” value (FITC-dextran 200 µg/mL + metoprolol 0.4 mg/mL, BL receiver pH 7.4, 90 min) of the same substance?
A: Its value is 0.023 ± 0.00%.

Q: What about the “Receiver (%)” value (FITC-dextran 200 µg/mL + metoprolol 0.4 mg/mL, BL receiver pH 7.4, 120 min) of the same substance?
A: Its value is 0.020 ± 0.001%.

Q: What about the “Donor (%)” value (FITC-dextran 200 µg/mL alone, AP donor pH 6.8, 0 min) of the same substance?
A: The value was 100 ± 0.0%.

Q: What about the “Donor (%)” value (FITC-dextran 200 µg/mL alone, AP donor pH 6.8, 120 min) of the same substance?
A: Its value is 93.7 ± 7.8%.

Q: What about the “Receiver (%)” value (FITC-dextran 200 µg/mL alone, BL receiver pH 7.4, 0 min) of the same substance?
A: The value was 0.020 ± 0.001%.

Q: What about the “Receiver (%)” value (FITC-dextran 200 µg/mL alone, BL receiver pH 7.4, 15 min) of the same substance?
A: Its value is 0.021 ± 0.003%.

Q: What about the “Receiver (%)” value (FITC-dextran 200 µg/mL alone, BL receiver pH 7.4, 30 min) of the same substance?
A: Its value is 0.024 ± 0.004%.

Q: And the “Receiver (%)” value (FITC-dextran 200 µg/mL alone, BL receiver pH 7.4, 45 min)?
A: Its value is 0.022 ± 0.002%.

Q: And the “Receiver (%)” value (FITC-dextran 200 µg/mL alone, BL receiver pH 7.4, 60 min)?
A: Its value is 0.024 ± 0.003%.

Q: And the “Receiver (%)” value (FITC-dextran 200 µg/mL alone, BL receiver pH 7.4, 90 min)?
A: Its value is 0.023 ± 0.004%.

Q: And the “Receiver (%)” value (FITC-dextran 200 µg/mL alone, BL receiver pH 7.4, 120 min)?
A: The value was 0.022 ± 0.002%.

Q: And the “percentage of relative fluorescence, donor side” value [1]?
A: The value was 94.6 % RFU.

Q: And the “percentage of relative fluorescence, receiver side” value [1]?
A: Its value is less than 0.02 % RFU.

Q: What about the “percentage of relative fluorescence, donor chamber” value [2] of the same substance?
A: Its value is 93.7 % RFU.

Q: And the “percentage of relative fluorescence, receiver chamber” value [2]?
A: Its value is less than 0.02 % RFU.

Like-named read-outs stand apart in the source and are kept apart here.
